According to paper PMC5997768 (2018):

Tests used:
[1] = system: healthy rats; test: Locomotor activity; conditions: s.c.; fentanyl 30 µg/kg, morphine 16 mg/kg (highest dose), FF3 150 µg/kg (highest dose)
[2] = system: rats; test: Defecation (constipation); conditions: s.c.; fentanyl 30 µg/kg, morphine all doses 1–16 mg/kg, FF3 highest dose 150 µg/kg
[3] = system: healthy rats; test: Conditioned place preference (CPP); conditions: s.c.; fentanyl 30 µg/kg, morphine 2–16 mg/kg (most doses), FF3 all doses 30–150 µg/kg
[4] = system: naïve rats; test: Motor coordination (accelerating Rota-Rod); conditions: s.c.; fentanyl 30 µg/kg, morphine all doses 2–16 mg/kg, FF3 two highest doses 60–150 µg/kg
[5] = system: healthy rats; test: Pulse oximetry: heart rate, oxygen saturation, respiratory rate; conditions: s.c.; FF3 150 µg/kg (highest dose), 5–15 min; morphine all doses 8–64 mg/kg, entire period 60 min

CN1CC[C@]23c4c5ccc(O)c4O[C@H]2[C@@H](O)C=C[C@H]3[C@H]1C5 [Morphine]
Locomotor activity, distance traveled within 30 min [1]: decreased | Constipation, number of defecations in 1 h [2]: reduced defecation | Conditioned place preference [3]: produced preference for the drug-associated compartment | Motor coordination on accelerating Rota-Rod [4]: Impaired motor coordination | Oxygen saturation [5]: impaired
